Experimental data: patent US4138482A, “3-Cyano-N-(N,N-dimethylaminopropyl)-iminodibenzyl and salts thereof” (Hoffmann-La Roche Inc., priority 1976, dated 1979)
Structures can show the parent of a compound that is named as a salt.

What was measured:
[1] = tested on: serotonin uptake in the synaptosomes of the forebrain of rats; experiment: Inhibition of the serotonin uptake in vitro (synaptosomes of the forebrain of rats); format: biochemical, rat; settings: read-out: ED50 (inhibition of 50%) of serotonin uptake in vitro
Procedure: 1. Inhibition of the serotonin uptake in vitro
(§1) The uptake of serotonin in the synaptosomes of the forebrain of rats was tested according to J. Pharmacol. exp.

[2] = tested on: serotonin uptake in the synaptosomes of the forebrain of rats; experiment: Inhibition of the serotonin uptake ex vivo; format: in vivo; settings: Rattus norvegicus, ip, injected intraperitoneally, serotonin uptake measured after 1 hour
Procedure: as §1
2. Inhibition of the serotonin uptake ex vivo
An analogous experimental procedure to that given under 1 was utilized. The test substances were, however, injected intraperitoneally; the serotonin uptake was measured after 1 hour. Untreated rats were used as the controls.

[3] = tested on: serotonin re-uptake ("membrane pump"); experiment: Inhibition of the serotonin re-uptake in vivo (action of the "membrane pump"); settings: Rattus norvegicus, Biochem. Pharmacol. 20, 707, 1971
[4] = tested on: serotonin uptake in blood platelets of the rat; experiment: Inhibition of the serotonin uptake in vivo (blood platelets); settings: ip
Procedure: 5. Inhibition of the serotonin uptake in vivo
Rats were given twice daily over a period of 4 days an intraperitoneal injection of 5.0 mg. of test substance per kg. and 12 hours after the last administration the rats were killed. Serotonin was determined spectrofluorimetrically as described in J. Pharmacol. exp.

## CN(C)CCCN1c2ccccc2CCc2ccc(Cl)cc21 [Substance C, 3-Chloro-N-(N,N-dimethylaminopropyl)-iminodibenzyl hydrochloride, reference compound]
[1]
  IC50: 6.4 nM
[2]
  ED50: 2.2 mg/kg
[3]
  ED50: 6.5 mg/kg
[4]; Rattus norvegicus, Platelet, 5.0 mg/kg intraperitoneally twice daily over 4 days, 12 hours after last administration, read-out: Inhibition in % of the control
  inhibition at 5 mg/kg: 3%
[4]; 5 mg/kg
  Serotonin in mmol/mg. of protein: 10.91 ± 2.11 mmol/mg. of protein
